Data from patent publication US5416191A, “Bradykinin antagonists” (Cortech, Inc., priority 1993, dated 1995).

Protein sequences, listed by entry. Tags and fused reporters are not part of them.
UniProt O70526, whole entry: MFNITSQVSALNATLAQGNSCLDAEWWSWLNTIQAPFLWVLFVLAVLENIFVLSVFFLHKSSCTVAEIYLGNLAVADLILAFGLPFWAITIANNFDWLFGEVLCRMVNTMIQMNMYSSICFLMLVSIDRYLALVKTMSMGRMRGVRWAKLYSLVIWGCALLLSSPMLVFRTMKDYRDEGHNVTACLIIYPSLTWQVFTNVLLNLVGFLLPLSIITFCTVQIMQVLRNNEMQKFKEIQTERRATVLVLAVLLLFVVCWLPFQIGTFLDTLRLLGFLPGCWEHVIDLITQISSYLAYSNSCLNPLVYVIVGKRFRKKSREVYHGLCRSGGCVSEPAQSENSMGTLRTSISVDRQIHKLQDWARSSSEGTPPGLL
UniProt P25023, whole entry: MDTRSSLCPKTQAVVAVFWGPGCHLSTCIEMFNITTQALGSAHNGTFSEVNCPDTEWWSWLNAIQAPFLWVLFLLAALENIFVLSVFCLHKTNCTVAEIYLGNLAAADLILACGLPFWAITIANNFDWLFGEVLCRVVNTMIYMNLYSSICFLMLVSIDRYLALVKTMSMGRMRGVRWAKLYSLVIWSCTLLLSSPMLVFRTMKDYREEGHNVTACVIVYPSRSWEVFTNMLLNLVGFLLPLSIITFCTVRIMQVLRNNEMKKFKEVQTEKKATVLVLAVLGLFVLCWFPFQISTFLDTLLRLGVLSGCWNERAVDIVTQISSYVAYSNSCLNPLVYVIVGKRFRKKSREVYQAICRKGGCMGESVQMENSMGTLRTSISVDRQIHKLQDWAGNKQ

Legend:
[1] = target: bradykinin receptor of the B2 class (guinea-pig ileum) (Cavia porcellus, UniProt O70526); conditions: Table A; recovery after wash, lower = longer duration
[2] = target: T1, bradykinin receptor of the B2 class (rat uterus) (Rattus norvegicus, UniProt P25023); experiment: Rat uterus (RU) in vitro, antagonism of bradykinin
T1 construct: concentration effect curves to bradykinin (BK) on rat uterus in vitro; from tissue; host or cells: rat uterus
Protocol: Thus in vitro studies were performed on standard assay systems, namely, guinea-pig ileum (GPI), rat uterus (RU) and rabbit jugular vein (RJV). […] The PA2 can be defined as the negative logarithm of the molar concentration of the antagonist in the presence of which the potency of the agonist is reduced two-fold, i.e. twice the amount of agonist is required to produce a given response in the presence of, than in the absence of, the antagonist. A high potency of antagonism is indicated by a high PA2 value, i.e., a low concentration of antagonist is effective.
The percentage recovery (% Rec) was also determined for compounds with respect to each assay.
With respect to duration of activity, it is noted that after exposure to the highest concentration of antagonist, each tissue was washed extensively and then assessed for recovery from the antagonist effect.
Potency in the rat uterus assay was assessed as described above and PA2 values determined.

CC(C)C[C@H](NC(=O)[C@@H](Cc1ccccc1)NC(=O)[C@H](CS)NC(=O)[C@H](Cc1ccccc1)NC(=O)CNC(=O)[C@@H]1C[C@@H](O)CN1C(=O)[C@@H]1CCCN1C(=O)[C@H](CCCNC(=N)N)NC(=O)[C@H](N)CCCNC(=N)N)C(=O)N[C@@H](CCCNC(=N)N)C(=O)O [CP-0126]
100%: GPI % REC [1] | RU % REC ([2]; Table A, recovery after wash) | % REC MONOMER ([2]; Table C, rat uterus) | RAT UTERUS % RECOVERED ([2]; Table E) | % RECOVERY ([2]; Table H, rat uterus)
